Reference: PubChem BioAssay (NCI)
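Compound exposure: 48 hours, 5 concentrations, 96-well plates. The concentration for 50% growth inhibition is given as GI50. TGI denotes the concentration required for complete inhibition of growth.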

System: MDA-MB-468 breast
Assay: DTP human tumour cell line panel, 48 h

SMILES: BrCCN(CCBr)c1ccc2c(c1)Cc1ccccc1-2
- GI50: 1.05 µM
- TGI: 2.79 µM
